Consider two substances from patent publication US11684675B2, “Dimeric collagen hybridizing peptides and methods of using” (University of Utah Research Foundation, priority 2015, dated 2023).

This assay addresses denatured collagen. As to the kind of experiment: ELISA-like assay, Kd. The settings on record: 25° C. The format is binding. The source says: Dimeric CHP is able to hybridize effectively with denatured collagens with faster folding kinetics than current, monomeric CHPs. Surface plasmon resonance (SPR) was used to measure the ability of the CHPs to trap denatured collagen from solution.
(In general: ELISA stands for enzyme-linked immunosorbent assay.)

As usually defined, the Kd is the constant that tells how readily two partners part at equilibrium. As to [(GPO)6G3)2KG [6d], the Kd is 621 nM. In turn, “(GPO)9-G3K^Biotin [b-9, reference compound]” came in with a Kd of 573 nM.
